This assay addresses integrin alpha(IIb)beta(3) (UniProt P08514 32-1039; P05106 27-788). Nature of the assay: cell-based or functional assay.

Where a chain is given by its changes, count along the chain named. Names and notes keep the numbering of the source.

B1: TNK-EA3K(G4S)2-RR (other)
chain: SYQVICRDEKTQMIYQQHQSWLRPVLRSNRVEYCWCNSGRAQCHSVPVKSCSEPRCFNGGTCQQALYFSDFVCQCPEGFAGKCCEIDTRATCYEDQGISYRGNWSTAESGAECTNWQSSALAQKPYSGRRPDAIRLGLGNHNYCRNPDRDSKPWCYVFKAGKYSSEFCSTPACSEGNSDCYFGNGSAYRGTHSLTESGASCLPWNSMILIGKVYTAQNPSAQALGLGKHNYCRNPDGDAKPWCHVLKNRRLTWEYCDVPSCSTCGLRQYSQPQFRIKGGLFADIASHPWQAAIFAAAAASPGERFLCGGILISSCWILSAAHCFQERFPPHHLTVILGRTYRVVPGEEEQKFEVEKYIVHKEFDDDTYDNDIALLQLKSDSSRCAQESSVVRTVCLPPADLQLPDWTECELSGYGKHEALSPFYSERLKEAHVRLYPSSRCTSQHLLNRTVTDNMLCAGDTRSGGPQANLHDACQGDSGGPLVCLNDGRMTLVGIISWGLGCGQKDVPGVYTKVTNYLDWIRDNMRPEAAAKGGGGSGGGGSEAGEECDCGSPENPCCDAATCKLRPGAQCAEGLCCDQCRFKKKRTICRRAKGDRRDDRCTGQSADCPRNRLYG
For the molecule B1, the “IC50: platelet aggregation (ADP-induced, platelet-rich plasma)” value (“IC50: platelet aggregation” for short) worked out at 276 nM.

B2: TNK-(G4S)3-RR (other)
chain: B1 chain with E528G, A529G, A530G, A531G, K532S
Regarding B2, the “IC50: platelet aggregation” value stood at 249 nM.

B3: TNK-(EA3K)3-RR (other)
chain: B1 chain with G533E, G534A, G535A, G536A, S537K, G538E, G539A, G540A, G541A, S542K
In the case of B3, the “IC50: platelet aggregation” value was found to be 458 nM.

B4: RR-(PA)5-TNK (other)
chain: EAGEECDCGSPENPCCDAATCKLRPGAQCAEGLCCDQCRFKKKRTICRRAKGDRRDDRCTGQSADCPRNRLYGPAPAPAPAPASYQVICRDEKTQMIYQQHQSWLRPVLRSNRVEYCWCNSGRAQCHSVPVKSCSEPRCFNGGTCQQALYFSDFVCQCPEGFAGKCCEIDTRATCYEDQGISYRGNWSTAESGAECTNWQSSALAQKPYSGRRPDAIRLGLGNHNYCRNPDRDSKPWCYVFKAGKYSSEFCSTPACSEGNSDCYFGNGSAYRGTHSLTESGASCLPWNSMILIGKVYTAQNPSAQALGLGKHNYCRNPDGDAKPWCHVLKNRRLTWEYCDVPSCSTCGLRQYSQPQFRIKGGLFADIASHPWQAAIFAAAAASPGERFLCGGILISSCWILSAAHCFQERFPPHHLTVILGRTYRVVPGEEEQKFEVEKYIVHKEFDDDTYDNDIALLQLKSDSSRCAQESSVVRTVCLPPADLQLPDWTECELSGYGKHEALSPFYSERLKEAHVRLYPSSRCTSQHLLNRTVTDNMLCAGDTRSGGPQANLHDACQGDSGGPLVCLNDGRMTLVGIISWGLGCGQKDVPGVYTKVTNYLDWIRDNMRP
As for B4, the “IC50: platelet aggregation” value was found to be 1370 nM.

B5: TNK-(PA)7-RR (other)
chain: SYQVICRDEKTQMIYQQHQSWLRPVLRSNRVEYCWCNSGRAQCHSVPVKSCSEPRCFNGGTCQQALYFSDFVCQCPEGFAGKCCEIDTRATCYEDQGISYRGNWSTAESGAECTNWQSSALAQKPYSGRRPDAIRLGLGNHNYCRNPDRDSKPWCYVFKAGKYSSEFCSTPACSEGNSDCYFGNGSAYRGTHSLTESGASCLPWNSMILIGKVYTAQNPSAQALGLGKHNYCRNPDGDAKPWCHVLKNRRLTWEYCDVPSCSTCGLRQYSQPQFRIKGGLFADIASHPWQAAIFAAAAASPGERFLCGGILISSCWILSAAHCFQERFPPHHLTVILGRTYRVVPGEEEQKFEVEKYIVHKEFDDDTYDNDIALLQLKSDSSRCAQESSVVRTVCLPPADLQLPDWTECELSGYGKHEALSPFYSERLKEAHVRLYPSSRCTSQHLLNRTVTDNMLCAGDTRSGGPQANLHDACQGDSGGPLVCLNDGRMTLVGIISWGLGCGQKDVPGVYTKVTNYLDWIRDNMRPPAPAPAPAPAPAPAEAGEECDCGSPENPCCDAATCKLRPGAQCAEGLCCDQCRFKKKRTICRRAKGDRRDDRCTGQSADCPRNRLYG
Consider B5, for which the “IC50: platelet aggregation” value stood at 347 nM.

B6: TNK-(PA)3-RR (other)
chain: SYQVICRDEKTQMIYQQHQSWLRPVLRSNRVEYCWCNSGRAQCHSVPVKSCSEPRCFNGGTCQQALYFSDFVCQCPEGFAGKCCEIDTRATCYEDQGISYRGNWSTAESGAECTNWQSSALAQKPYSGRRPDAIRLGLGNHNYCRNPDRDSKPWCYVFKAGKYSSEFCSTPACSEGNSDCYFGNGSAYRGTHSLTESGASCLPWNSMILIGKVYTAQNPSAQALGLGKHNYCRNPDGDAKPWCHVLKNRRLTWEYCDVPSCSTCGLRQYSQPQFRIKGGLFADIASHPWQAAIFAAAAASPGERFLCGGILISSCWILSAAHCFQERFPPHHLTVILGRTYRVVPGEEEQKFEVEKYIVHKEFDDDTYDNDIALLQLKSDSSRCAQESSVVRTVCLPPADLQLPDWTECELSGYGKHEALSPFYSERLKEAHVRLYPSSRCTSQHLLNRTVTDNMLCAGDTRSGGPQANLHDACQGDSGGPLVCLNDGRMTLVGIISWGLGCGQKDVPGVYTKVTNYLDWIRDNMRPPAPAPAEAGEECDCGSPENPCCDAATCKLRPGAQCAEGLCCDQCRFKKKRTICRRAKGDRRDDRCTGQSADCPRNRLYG
Take B6: the “IC50: platelet aggregation” value is 506 nM.

B7: TNK-(PA)5-RR (other)
chain: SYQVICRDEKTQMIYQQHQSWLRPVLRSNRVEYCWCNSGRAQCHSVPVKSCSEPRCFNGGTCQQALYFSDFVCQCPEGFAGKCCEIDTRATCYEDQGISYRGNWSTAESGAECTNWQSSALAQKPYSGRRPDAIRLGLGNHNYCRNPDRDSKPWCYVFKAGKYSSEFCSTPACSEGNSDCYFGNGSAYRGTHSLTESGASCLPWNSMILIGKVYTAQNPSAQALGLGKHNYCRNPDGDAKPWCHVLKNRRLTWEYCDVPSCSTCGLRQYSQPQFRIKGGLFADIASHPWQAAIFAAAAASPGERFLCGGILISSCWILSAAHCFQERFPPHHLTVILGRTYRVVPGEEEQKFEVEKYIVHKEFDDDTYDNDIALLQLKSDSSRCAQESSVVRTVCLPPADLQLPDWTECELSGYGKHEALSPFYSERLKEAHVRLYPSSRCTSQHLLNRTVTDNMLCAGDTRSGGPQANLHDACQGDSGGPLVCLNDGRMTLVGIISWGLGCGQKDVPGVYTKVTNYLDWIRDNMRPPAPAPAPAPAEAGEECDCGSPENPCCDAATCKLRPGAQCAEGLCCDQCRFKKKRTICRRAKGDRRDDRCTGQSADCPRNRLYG
As for B7, the “IC50: platelet aggregation” value was 380 nM.

B8: TNK-G9-RR (other)
chain: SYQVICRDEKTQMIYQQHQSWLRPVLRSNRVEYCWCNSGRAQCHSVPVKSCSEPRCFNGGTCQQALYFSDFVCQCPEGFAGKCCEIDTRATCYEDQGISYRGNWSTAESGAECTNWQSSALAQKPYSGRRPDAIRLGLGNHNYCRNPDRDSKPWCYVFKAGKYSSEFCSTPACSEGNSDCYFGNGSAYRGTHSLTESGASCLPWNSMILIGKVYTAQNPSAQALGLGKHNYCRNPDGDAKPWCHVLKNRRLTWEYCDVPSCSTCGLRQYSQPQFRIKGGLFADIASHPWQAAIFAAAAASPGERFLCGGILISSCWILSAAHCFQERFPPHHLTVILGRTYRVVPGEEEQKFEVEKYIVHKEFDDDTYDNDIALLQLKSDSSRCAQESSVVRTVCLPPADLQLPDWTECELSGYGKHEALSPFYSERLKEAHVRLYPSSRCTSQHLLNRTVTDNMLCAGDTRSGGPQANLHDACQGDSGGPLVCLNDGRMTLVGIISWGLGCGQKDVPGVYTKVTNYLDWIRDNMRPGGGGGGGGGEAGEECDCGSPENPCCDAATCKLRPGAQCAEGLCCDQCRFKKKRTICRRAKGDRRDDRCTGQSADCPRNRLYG
Turning to B8, the “IC50: platelet aggregation” value is 567 nM.

The record behind these values is patent US20240084280A1 (NATIONAL CHENG KUNG UNIVERSITY, published 2024).
